Measured values reported in patent US20250129370A1, “METHOD FOR REDUCING HEPATIC TRIGLYCERIDES” (ADAERATA, LIMITED PARTNERSHIP, priority 2022, published 2025).

System: LC3-II
Assay: LC3-II immunoblot in primary hepatocytes of WT and Pcsk7-/- mice
Format: cell-based, mouse
Details: 6 h
Method: FIG. 13: Immunoblots of LC3 in primary hepatocytes of WT and Pcsk7^−/− mice incubated for 6 h without or with 100 M chloroquine (n=2 independent experiments performed in triplicates). Values are means±SEM. Statistical comparisons with controls were performed by an unpaired two-sided t-test. *p<0.05, **p<0.01, ***p<0.001.
To further probe this fat-burning mechanism, the inventors measured the levels of the autophagosomal marker micro-tubule-associated protein 1A/1B-light chain 3 (LC3-II) by western blot in primary hepatocytes isolated from WT and Pcsk7^−/− mice.
It is concluded that under normal diet, the lack of PC7 leads to enhanced ER-associated autophagy and hydrolysis of TG, ultimately leading to fatty acid release and their enhanced ß-oxidation in mitochondria, as reported in mice treated with an antisense oligonucleotide targeting apolipoprotein B (apoB)(Conlon et al., 2016).

With `CCN(CC)CCCC(C)Nc1ccnc2cc(Cl)ccc12` (stereo not shown) [chloroquine] the LC3-II levels was “accumulation of LC3-II”.
